The numbers were not newly measured in patent US4469706A, “Selective beta-2 adrenergic antagonists for the treatment of glaucoma” (priority 1982, dated 1984), which cites them from elsewhere.

Amino acid sequences for entries named in this document (tags omitted).
UniProt P10608, whole entry: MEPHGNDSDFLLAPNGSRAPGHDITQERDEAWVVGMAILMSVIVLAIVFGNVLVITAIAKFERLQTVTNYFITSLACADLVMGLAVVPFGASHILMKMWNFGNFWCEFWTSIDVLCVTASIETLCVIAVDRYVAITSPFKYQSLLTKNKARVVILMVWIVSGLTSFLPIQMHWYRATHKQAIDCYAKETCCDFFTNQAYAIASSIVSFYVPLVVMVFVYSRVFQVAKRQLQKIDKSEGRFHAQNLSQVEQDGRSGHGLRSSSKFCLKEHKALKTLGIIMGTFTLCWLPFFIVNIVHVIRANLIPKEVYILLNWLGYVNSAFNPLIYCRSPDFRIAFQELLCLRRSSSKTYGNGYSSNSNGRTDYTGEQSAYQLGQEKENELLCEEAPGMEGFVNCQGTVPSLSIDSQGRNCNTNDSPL

Molecules are shown by their SMILES. Structures can show the parent of a compound that is named as a salt.

A word on the Kd: it is a measure of binding affinity in units of concentration.

For the data set, the target named is T1, beta2 adrenergic receptor present in mammalian lung (Rattus norvegicus, UniProt P10608).
T1 construct: Washed particulate preparations of the above described tissues are suspended; host or cells: lung, washed particulate preparation
The settings on record: read-out: Kd for IHYP Binding, Lung (D); cited from earlier work.

For `CC(C)(C)NCC(O)CON=C1c2ccccc2-c2ccccc21` (stereo not shown) [IPS 339, (t-butyl-amino 3-ol-2-propyl) oximino-9 fluorene, hydrochloride], the dissociation constant Kd was 0.5 nM.
